Earlier results on one compound are cited in PMC9667546, “Selective Inhibition of Bruton’s Tyrosine Kinase by a Designed Covalent Ligand Leads to Potent Therapeutic Efficacy in Blood Cancers Relative to Clinically Used Inhibitors” (ACS Pharmacology & Translational Science, 2022).

By UniProt entry, the sequences of proteins in these tests, tags left out. Where a name states a change or a piece, a line headed by the entry shows the natural chain unless it says otherwise.
UniProt Q06187: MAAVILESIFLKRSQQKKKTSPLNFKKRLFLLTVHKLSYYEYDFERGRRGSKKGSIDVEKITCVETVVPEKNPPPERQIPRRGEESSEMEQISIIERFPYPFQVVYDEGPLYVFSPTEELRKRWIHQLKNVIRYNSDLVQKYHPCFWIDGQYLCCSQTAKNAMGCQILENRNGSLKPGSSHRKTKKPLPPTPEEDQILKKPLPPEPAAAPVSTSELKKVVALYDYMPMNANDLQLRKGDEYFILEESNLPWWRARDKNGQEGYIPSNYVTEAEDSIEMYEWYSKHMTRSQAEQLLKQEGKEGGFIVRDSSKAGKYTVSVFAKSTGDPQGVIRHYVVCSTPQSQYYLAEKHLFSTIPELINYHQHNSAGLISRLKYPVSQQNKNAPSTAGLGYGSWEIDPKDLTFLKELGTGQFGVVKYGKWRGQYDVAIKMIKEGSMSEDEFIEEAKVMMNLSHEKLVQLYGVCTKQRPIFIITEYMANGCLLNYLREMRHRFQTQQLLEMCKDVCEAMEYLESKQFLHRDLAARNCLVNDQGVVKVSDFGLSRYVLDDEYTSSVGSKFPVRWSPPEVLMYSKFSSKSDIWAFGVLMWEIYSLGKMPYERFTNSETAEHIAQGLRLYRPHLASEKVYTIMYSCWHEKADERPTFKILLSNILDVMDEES

For this data set, the target named is BTK (Homo sapiens, UniProt Q06187). Also noted: purchased Promega Corporation V2941. Particulars: Table S3 heat map; ref SI 1-19; cited from earlier work.

Take `C[C@H]1CN(C2COC2)CCN1c1ccc(Nc2cc(-c3ccnc(N4CCn5c(cc6c5CC(C)(C)C6)C4=O)c3CO)cn(C)c2=O)nc1` [Fenebrutinib, fenebrutinib]: the IC50 is 2.3 nM.
